We go through four molecules from ChEMBL document CHEMBL1129525 (J Med Chem, 1996).

By IC50 is commonly meant the point on the concentration scale where inhibition reaches its midpoint. A high value points to a need for much substance.

For one experiment, the target named is T1, Dihydrofolate reductase (Pneumocystis carinii, UniProt P16184).
T1 sequence (P16184 whole entry): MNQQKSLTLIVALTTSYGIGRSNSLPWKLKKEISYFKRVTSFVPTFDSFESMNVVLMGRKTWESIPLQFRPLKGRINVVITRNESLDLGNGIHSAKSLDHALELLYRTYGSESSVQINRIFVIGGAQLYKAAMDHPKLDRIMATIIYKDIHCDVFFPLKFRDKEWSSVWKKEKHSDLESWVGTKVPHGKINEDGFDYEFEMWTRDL

Experiment [1] addresses T2, Bifunctional dihydrofolate reductase-thymidylate synthase (Toxoplasma gondii, UniProt Q07422).
T2 sequence (Q07422 whole entry): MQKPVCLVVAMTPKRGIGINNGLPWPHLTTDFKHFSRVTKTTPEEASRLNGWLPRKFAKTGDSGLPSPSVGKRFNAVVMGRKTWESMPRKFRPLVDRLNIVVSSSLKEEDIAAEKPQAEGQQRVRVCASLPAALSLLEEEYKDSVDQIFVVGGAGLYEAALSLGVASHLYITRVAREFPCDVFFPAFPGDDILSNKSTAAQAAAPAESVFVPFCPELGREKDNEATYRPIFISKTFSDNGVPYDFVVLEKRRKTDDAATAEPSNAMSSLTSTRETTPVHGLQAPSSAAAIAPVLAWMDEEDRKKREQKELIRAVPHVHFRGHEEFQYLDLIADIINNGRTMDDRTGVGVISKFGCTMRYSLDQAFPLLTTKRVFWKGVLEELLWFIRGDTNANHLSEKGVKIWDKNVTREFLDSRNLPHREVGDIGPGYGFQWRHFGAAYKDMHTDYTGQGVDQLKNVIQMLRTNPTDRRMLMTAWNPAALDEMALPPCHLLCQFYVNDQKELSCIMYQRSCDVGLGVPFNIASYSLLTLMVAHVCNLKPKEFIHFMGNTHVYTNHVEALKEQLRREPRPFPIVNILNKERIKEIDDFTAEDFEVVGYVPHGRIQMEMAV

With `COc1cc(NCc2cnc3nc(N)nc(N)c3c2)cc(OC)c1OC`, the IC50 against Dihydrofolate reductase was found to be 2 µM.

`Cc1ccc(SCc2cnc3nc(N)nc(N)c3n2)cc1`: the midpoint of inhibition against Dihydrofolate reductase, the IC50, lay at 30 µM. This IC50 lies about 15-fold higher than the previous one.

Molecule `COc1cc(NCc2cnc3nc(N)nc(N)c3c2C)cc(OC)c1OC` showed an IC50 in experiment [1] of 0.0027 µM.

In the case of `Nc1nc(N)c2nc(CCc3cccc4ccccc34)cnc2n1`, it took 97 µM to reach half-maximal inhibition against Dihydrofolate reductase (IC50).
